Literature values in patent EP4768496A1, “METHOD FOR PRODUCING PEPTIDE COMPOUND USING TWO OR MORE ADDITIVES” (Chugai Seiyaku Kabushiki Kaisha, priority 2023, dated 2025).

Conditions: additive; reported literature value, water as solvent, 25°C

Q: Which pKa does the source give for `O=[N+]([O-])C(=NO)[N+](=O)[O-]` here?
A: 2.7
